Source: publication PMC8742647 (Clinical and Translational Science, 2021)

What was measured:
[1] = ref Table S1; cited from earlier work
[2] = fraction unbound in plasma, equilibrium dialysis; type: in vitro ADME, humans; details: fraction unbound in human plasma
[3] = prediction of CLt,human by single-species allometric scaling from PXB-mice; parameters: species or system humans
[4] = prediction of CLt,human by physiologically based scaling using PXB-mice; parameters: species or system humans
[5] = prediction of CLt,human by in vitro–in vivo extrapolation; parameters: species or system humans
[6] = fraction unbound in rat plasma; ref Table S1; cited from earlier work
[7] = prediction of CLt,human by multispecies allometric scaling, rule of exponent
[8] = for Fold error (predicted/observed), FCIM: predicted/observed CLt,human

| SMILES | CLt, Monkeys [1] | f u,p, Humans [2] | Fold error (predicted/observed), PXB‐SSS [3] | Fold error (predicted/observed), PXB‐PBS [4] | Fold error (predicted/observed), IVIVE [5] | f u,p, Rats [6] | Fold error (predicted/observed), ROE [7] | Fold error (predicted/observed), FCIM [8] | Predicted CLt,human, FCIM ([8]; from CLt in rats, monkeys and dogs and fu,p ratio rat/human) |
| --- | --- | --- | --- | --- | --- | --- | --- | --- | --- |
| CC(=O)C[C@@H](c1ccccc1)c1c(O)c2ccccc2oc1=O [(S)‐Warfarin] | 0.102 mL/min/kg | – | – | – | – | – | – | – | – |
| COc1ccccc1Oc1c(NS(=O)(=O)c2ccc(C(C)(C)C)cc2)nc(-c2ncccn2)nc1OCCO [Bosentan] | – | 0.023 | 0.56 | 0.66 | 0.32 | 0.012 | 0.80 | 2.56 | – |
| CC(C)N(CCC(C(N)=O)(c1ccccc1)c1ccccn1)C(C)C (centres unmarked) [Disopyramide] | – | – | 4.14 | 5.15 | 1.38 | – | 8.17 | 5.06 | 4.56 mL/min/kg |
